Chains of the proteins cited; added tags and fusions are not shown.
UniProt P30550, whole entry: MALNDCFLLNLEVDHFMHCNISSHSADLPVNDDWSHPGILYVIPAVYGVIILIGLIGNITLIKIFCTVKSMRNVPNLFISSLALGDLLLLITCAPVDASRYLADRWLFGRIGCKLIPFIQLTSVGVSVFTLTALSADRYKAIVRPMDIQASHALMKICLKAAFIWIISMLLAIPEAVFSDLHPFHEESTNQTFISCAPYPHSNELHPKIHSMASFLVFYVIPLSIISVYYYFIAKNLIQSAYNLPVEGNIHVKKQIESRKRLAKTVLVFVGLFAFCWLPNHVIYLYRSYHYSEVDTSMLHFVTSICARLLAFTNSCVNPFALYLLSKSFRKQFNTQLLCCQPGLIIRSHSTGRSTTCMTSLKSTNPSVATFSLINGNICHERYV

According to patent US12246076B2, “Radiolabeled compounds for in vivo imaging of gastrin-releasing peptide receptor (GRPR) and treatment of GRPR-related disorders” (PROVINCIAL HEALTH SERVICES AUTHORITY, priority 2022, dated 2025):

Target: GRPR (Homo sapiens, UniProt P30550)
Assay: In vitro competition binding assay, displacement of [^125I-Tyr^4]bombesin on GRPR-expressing PC-3 cells
Conditions: read-out: Binding affinities Ki Mean, n = 2-3

Ki [nM]	Compound
6.94	CC(C)C[C@@H](CN1CSC[C@H]1C(N)=O)NC(=O)[C@H](Cc1c[nH]cn1)NC(=O)CNC(=O)[C@@H](NC(=O)[C@H](C)NC(=O)[C@](C)(Cc1c[nH]c2ccccc12)NC(=O)[C@H](CCC(N)=O)NC(=O)[C@@H](Cc1ccccc1)NC(=O)CN1CCC(NC(=O)CN2CCN(CC(=O)O)CCN(CC(=O)O)CCN(CC(=O)O)CC2)CC1)C(C)(C)C
11	CC(C)C[C@@H](CN1CSC[C@H]1C(N)=O)NC(=O)[C@H](Cc1c[nH]cn1)NC(=O)CN(C)C(=O)[C@@H](NC(=O)[C@H](C)NC(=O)[C@H](Cc1c[nH]c2ccccc12)NC(=O)[C@H](CCC(N)=O)NC(=O)[C@@H](Cc1ccccc1)NC(=O)CN1CCC(NC(=O)CN2CCN(CC(=O)O)CCN(CC(=O)O)CCN(CC(=O)O)CC2)CC1)C(C)(C)C
